A short description of data set [1]: HPLC quantification of caspase inhibitor in stabilization reagent before and after gamma irradiation. The data set is classed as physicochemical. The procedure: Caspase inhibitor (Q-VD-OPh) was dissolved and diluted in DMSO for generation of a standard curve. Concentrations of 7.5, 15, 30 and 60 μg/ml were used to generate the standard curve.
Stabilization reagents containing a mixture of caspase inhibitor, EDTA, DMPA and PEG were tested before and after gamma irradiation. Unique peaks for caspase inhibitor were identified and compared to the standard curve for total quantification of caspase inhibitor. The concentration of caspase inhibitor was determined before and after irradiation, and these concentrations were compared for relative quantification.
For the production of PAXgene Blood ccfDNA Alpha blood collection tubes (Alpha BCT), BD standard tubes for 10 ml blood draw were filled with 1.3-1.7 ml ccfDNA stabilization reagent. The exemplary stabilization reagents tested comprised a mixture of caspase inhibitor (Q-VD-OPh), K2EDTA, DMPA, PEG300 and PEG10000, according to PCT/EP2015/055699. A vacuum was applied to the tubes to allow for a 10.25 ml blood draw. Tubes were sterilized by gamma irradiation using Cobalt-60 as energetic gamma ray source in a range of 5 to 35 kGy. […]
Stabilization reagents were produced with or without the addition of radical scavengers and sterilized in bulk by gamma irradiation. The caspase inhibitor concentration was measured by HPLC before and after irradiation to determine the effect of scavenger addition on caspase inhibitor degradation during sterilization by gamma irradiation.
Stabilization reagents according to PCT/EP2015/055699 were produced with or without the addition of radical scavengers in different concentrations and with different concentrations of caspase inhibitor. PAXgene Blood ccfDNA Alpha tubes were produced by filling 1.7 ml of the respective stabilization reagent into a standard Vacutainer. Tubes were sterilized by gamma irradiation with different energy levels. The caspase inhibitor concentration was measured by HPLC before and after irradiation (see Table 7 below).

The test system of data set [2] is ccfDNA level in whole blood (66 bp and 500 bp fragments of the 18S rDNA gene). Put plainly: ccfDNA stabilization in stored whole blood, real time PCR of 18S rDNA fragments in plasma. As to conditions: 6 days at room temperature.
Where [3] appears, read: scavenger 1 mg/ml, casp-inh. 5 μM, 10 kGy.

As to `O=C1O[C@H]([C@@H](O)CO)C(O)=C1O` [Ascorbic acid], the “HPLC Testing [C-Inh]” value in data set [1] (setting [3]) was found to be 12.7 µg/mL; in data set [1] (scavenger 2 mg/ml, casp-inh. 5 μM, 0 kGy), 19.4 µg/mL; in data set [1] (scavenger 10 mg/ml, casp-inh. 5 μM, 30 kGy), 13.2 µg/mL.

With `N[C@@H](CCC(=O)N[C@@H](CS)C(=O)NCC(=O)O)C(=O)O` [Glutathione], the “HPLC Testing [C-Inh]” value in data set [1] (scavenger 0.2 mg/ml, casp-inh. 5 μM, 10 kGy) is 15.7 µg/mL; in data set [1] (scavenger 0.5 mg/ml, casp-inh. 5 μM, 0 kGy) it was 18.7 µg/mL; in data set [1] (setting [3]), 16.8 µg/mL.

As to `CC(=O)N[C@@H](CS)C(=O)O` [N-acetyl-L-cysteine], in data set [2] (0.5, 1.0, 2.0 and 4.0 mg/ml in Alpha tubes, irradiation up to 30 kGy, FIG. 8), the “protection of ccfDNA stabilization against gamma irradiation (x fold change of 66 bp and 500 bp fragments)” value is on record as “excellent protection”. For the same compound, in data set [2] (0.5, 1.0, 2.0 and 4.0 mg/ml in non-irradiated (0Gy) Alpha tubes, FIG. 8), the “effect on stabilization of extracellular nucleic acids (x fold change of 66 bp and 500 bp fragments)” value was “does not interfere with the stabilization of extracellular nucleic acids”. In data set [2] (scavenger 2 mg/ml in non-irradiated reagent, 8 donors, FIG. 3), the “change of copy numbers (x fold change) of 66 bp and 500 bp fragments of the 18S rDNA gene” value is on record as “possible without affecting the ccfDNA stabilization characteristics”. Besides, in data set [1] (scavenger 2 mg/ml, casp-inh. 15 μM, 20 kGy), the “HPLC Testing [C-Inh]” value was 46.3 µg/mL.
